Measurements published in ChEMBL document CHEMBL5370661, “Development of Fluorescent AF64394 Analogues Enables Real-Time Binding Studies for the Orphan Class A GPCR GPR3” (J Med Chem, 2023).

Amino acid sequences for entries named in this document (tags omitted). A change or cut given only in a name is not applied to a line headed by its entry.
UniProt P46089: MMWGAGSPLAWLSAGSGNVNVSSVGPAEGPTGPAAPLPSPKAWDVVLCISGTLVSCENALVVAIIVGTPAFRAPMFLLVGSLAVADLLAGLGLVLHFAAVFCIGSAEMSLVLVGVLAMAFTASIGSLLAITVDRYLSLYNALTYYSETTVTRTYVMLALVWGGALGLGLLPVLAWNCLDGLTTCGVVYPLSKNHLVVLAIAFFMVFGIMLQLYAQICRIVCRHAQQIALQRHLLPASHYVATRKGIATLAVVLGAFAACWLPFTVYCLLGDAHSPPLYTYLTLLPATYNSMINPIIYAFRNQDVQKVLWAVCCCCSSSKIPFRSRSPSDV

Target: G-protein coupled receptor 3 (Homo sapiens, UniProt P46089)

`c1ccc2c(c1)[I+]c1ccccc1-2` [DIPHENYLENEIODONIUM CHLORIDE] was tested. Which EC50 did it give?
The EC50 was 1000 nM.
